From patent publication US12171806B2, “Therapeutic regimens and methods for lowering blood glucose and/or body weight using GLP-1R and GCGR balanced agonists” (priority 2021, dated 2024)

Experiment: Phase 1 MAD study of ALT-801: adverse events (TEAEs), safety overview

Structure (SMILES): CC[C@H](C)[C@H](NC(=O)[C@H](Cc1ccccc1)NC(=O)[C@H](CCC(=O)O)NC(=O)[C@@H]1CCCCNC(=O)CC[C@H](NC(=O)[C@H](CC(=O)O)NC(=O)[C@H](CC(C)C)NC(=O)[C@H](Cc2ccc(O)cc2)NC(=O)[C@H](CCCCN)NC(=O)[C@H](CO)NC(=O)[C@H](Cc2ccc(O)cc2)NC(=O)[C@H](CC(=O)O)NC(=O)[C@H](CO)NC(=O)[C@@H](NC(=O)[C@H](Cc2ccccc2)NC(=O)[C@@H](NC(=O)CNC(=O)[C@H](CCC(N)=O)NC(=O)C(C)(C)NC(=O)[C@@H](N)Cc2c[nH]cn2)[C@@H](C)O)[C@@H](C)O)C(=O)N[C@@H](CCCCNC(=O)[C@H]2O[C@@H](OCCCCCCCCCCCCCCCCCC(=O)O)[C@H](O)[C@@H](O)[C@@H]2O)C(=O)N[C@@H](C)C(=O)N[C@@H](C)C(=O)N1)C(=O)N[C@@H](CCC(N)=O)C(=O)N[C@@H](Cc1c[nH]c2ccccc12)C(=O)N[C@@H](CC(C)C)C(=O)N[C@@H](CC(C)C)C(=O)N[C@@H](CCC(N)=O)C(=O)N[C@H](C(N)=O)[C@@H](C)O [ALT-801, pemvidutide]
- TEAE Injection site bruising; PLT; n (M3 2.4 mg (N = 11)): 0
- TEAE Injection site bruising; Severe; % (M3 2.4 mg (N = 11)): (0.0%)
- TEAE Injection site bruising; Severe; n (M3 2.4 mg (N = 11)): 0
- TEAE Injection site dermatitis; Mild; % (M3 2.4 mg (N = 11)): (0.0%)
- TEAE Injection site dermatitis; Mild; n (M3 2.4 mg (N = 11)): 0
- TEAE Injection site dermatitis; Moderate; % (M3 2.4 mg (N = 11)): (0.0%)
- TEAE Injection site dermatitis; Moderate; n (M3 2.4 mg (N = 11)): 0
- TEAE Injection site dermatitis; PLT; % (M3 2.4 mg (N = 11)): (0.0%)
- TEAE Injection site dermatitis; PLT; n (M3 2.4 mg (N = 11)): 0
- TEAE Injection site dermatitis; Severe; % (M3 2.4 mg (N = 11)): (0.0%)
- TEAE Injection site dermatitis; Severe; n (M3 2.4 mg (N = 11)): 0
- TEAE Nausea; Mild; % (M3 2.4 mg (N = 11)): (45.5%)
- TEAE Nausea; Mild; n (M3 2.4 mg (N = 11)): 5
- TEAE Nausea; Moderate; % (M3 2.4 mg (N = 11)): (45.5%)
- TEAE Nausea; Moderate; n (M3 2.4 mg (N = 11)): 5
- TEAE Nausea; PLT; % (M3 2.4 mg (N = 11)): (0.0%)
- TEAE Nausea; PLT; n (M3 2.4 mg (N = 11)): 0
- TEAE Nausea; Severe; % (M3 2.4 mg (N = 11)): (0.0%)
- TEAE Nausea; Severe; n (M3 2.4 mg (N = 11)): 0
- TEAE Palpitation; Mild; % (M3 2.4 mg (N = 11)): (9.1%)
- TEAE Palpitation; Mild; n (M3 2.4 mg (N = 11)): 1
- TEAE Palpitation; Moderate; % (M3 2.4 mg (N = 11)): (0.0%)
- TEAE Palpitation; Moderate; n (M3 2.4 mg (N = 11)): 0
- TEAE Palpitation; PLT; % (M3 2.4 mg (N = 11)): (0.0%)
- TEAE Palpitation; PLT; n (M3 2.4 mg (N = 11)): 0
- TEAE Palpitation; Severe; % (M3 2.4 mg (N = 11)): (0.0%)
- TEAE Palpitation; Severe; n (M3 2.4 mg (N = 11)): 0
- TEAE Peripheral swelling; Mild; % (M3 2.4 mg (N = 11)): (0.0%)
- TEAE Peripheral swelling; Mild; n (M3 2.4 mg (N = 11)): 0
- TEAE Peripheral swelling; Moderate; % (M3 2.4 mg (N = 11)): (0.0%)
- TEAE Peripheral swelling; Moderate; n (M3 2.4 mg (N = 11)): 0
- TEAE Peripheral swelling; PLT; % (M3 2.4 mg (N = 11)): (0.0%)
- TEAE Peripheral swelling; PLT; n (M3 2.4 mg (N = 11)): 0
- TEAE Peripheral swelling; Severe; % (M3 2.4 mg (N = 11)): (0.0%)
- TEAE Peripheral swelling; Severe; n (M3 2.4 mg (N = 11)): 0
- TEAE Rectal haemorrhage; Mild; % (M3 2.4 mg (N = 11)): (9.1%)
- TEAE Rectal haemorrhage; Mild; n (M3 2.4 mg (N = 11)): 1
- TEAE Rectal haemorrhage; Moderate; % (M3 2.4 mg (N = 11)): (0.0%)
- TEAE Rectal haemorrhage; Moderate; n (M3 2.4 mg (N = 11)): 0
- TEAE Rectal haemorrhage; PLT; % (M3 2.4 mg (N = 11)): (0.0%)
- TEAE Rectal haemorrhage; PLT; n (M3 2.4 mg (N = 11)): 0
- TEAE Rectal haemorrhage; Severe; % (M3 2.4 mg (N = 11)): (0.0%)
- TEAE Rectal haemorrhage; Severe; n (M3 2.4 mg (N = 11)): 0
- TEAE Tachycardia; Mild; % (M3 2.4 mg (N = 11)): (9.1%)
- TEAE Tachycardia; Mild; n (M3 2.4 mg (N = 11)): 1
- TEAE Tachycardia; Moderate; % (M3 2.4 mg (N = 11)): (0.0%)
- TEAE Tachycardia; Moderate; n (M3 2.4 mg (N = 11)): 0
- TEAE Tachycardia; PLT; % (M3 2.4 mg (N = 11)): (0.0%)
- TEAE Tachycardia; PLT; n (M3 2.4 mg (N = 11)): 0
- TEAE Tachycardia; Severe; % (M3 2.4 mg (N = 11)): (0.0%)
- TEAE Tachycardia; Severe; n (M3 2.4 mg (N = 11)): 0
- TEAE Tooth impacted; Mild; % (M3 2.4 mg (N = 11)): (0.0%)
- TEAE Tooth impacted; Mild; n (M3 2.4 mg (N = 11)): 0
- TEAE Tooth impacted; Moderate; % (M3 2.4 mg (N = 11)): (0.0%)
- TEAE Tooth impacted; Moderate; n (M3 2.4 mg (N = 11)): 0
- TEAE Tooth impacted; PLT; % (M3 2.4 mg (N = 11)): (0.0%)
- TEAE Tooth impacted; PLT; n (M3 2.4 mg (N = 11)): 0
- TEAE Tooth impacted; Severe; % (M3 2.4 mg (N = 11)): (0.0%)
- TEAE Tooth impacted; Severe; n (M3 2.4 mg (N = 11)): 0
- TEAE Toothache; Mild; % (M3 2.4 mg (N = 11)): (0.0%)
- TEAE Toothache; Mild; n (M3 2.4 mg (N = 11)): 0
- TEAE Toothache; Moderate; % (M3 2.4 mg (N = 11)): (0.0%)
- TEAE Toothache; Moderate; n (M3 2.4 mg (N = 11)): 0
- TEAE Toothache; PLT; % (M3 2.4 mg (N = 11)): (0.0%)
- TEAE Toothache; PLT; n (M3 2.4 mg (N = 11)): 0
- TEAE Toothache; Severe; % (M3 2.4 mg (N = 11)): (0.0%)
- TEAE Toothache; Severe; n (M3 2.4 mg (N = 11)): 0
- TEAE Vessel puncture site pain; Mild; % (M3 2.4 mg (N = 11)): (0.0%)
- TEAE Vessel puncture site pain; Mild; n (M3 2.4 mg (N = 11)): 0
- TEAE Vessel puncture site pain; Moderate; % (M3 2.4 mg (N = 11)): (0.0%)
- TEAE Vessel puncture site pain; Moderate; n (M3 2.4 mg (N = 11)): 0
- TEAE Vessel puncture site pain; PLT; % (M3 2.4 mg (N = 11)): (0.0%)
- TEAE Vessel puncture site pain; PLT; n (M3 2.4 mg (N = 11)): 0
- TEAE Vessel puncture site pain; Severe; % (M3 2.4 mg (N = 11)): (0.0%)
- TEAE Vessel puncture site pain; Severe; n (M3 2.4 mg (N = 11)): 0
- TEAE Vomiting; Mild; % (M3 2.4 mg (N = 11)): (45.5%)
- TEAE Vomiting; Mild; n (M3 2.4 mg (N = 11)): 5
- TEAE Vomiting; Moderate; % (M3 2.4 mg (N = 11)): (27.3%)
- TEAE Vomiting; Moderate; n (M3 2.4 mg (N = 11)): 3
- TEAE Vomiting; PLT; % (M3 2.4 mg (N = 11)): (0.0%)
- TEAE Vomiting; PLT; n (M3 2.4 mg (N = 11)): 0
- TEAE Vomiting; Severe; % (M3 2.4 mg (N = 11)): (0.0%)
- TEAE Vomiting; Severe; n (M3 2.4 mg (N = 11)): 0
- TEAE Cough, maximum severity Mild, subjects % (M3 2.4 mg ALT-801 (N = 11)): (9.1%)
- TEAE Cough, maximum severity Mild, subjects n (M3 2.4 mg ALT-801 (N = 11)): 1
- TEAE Cough, maximum severity Moderate, subjects % (M3 2.4 mg ALT-801 (N = 11)): (0.0%)
- TEAE Cough, maximum severity Moderate, subjects n (M3 2.4 mg ALT-801 (N = 11)): 0
- TEAE Cough, maximum severity PLT, subjects % (M3 2.4 mg ALT-801 (N = 11)): (0.0%)
- TEAE Cough, maximum severity PLT, subjects n (M3 2.4 mg ALT-801 (N = 11)): 0
- TEAE Cough, maximum severity Severe, subjects % (M3 2.4 mg ALT-801 (N = 11)): (0.0%)
